From BindingDB's records for doi:10.1021/jm00073a009 (Harvard Medical School, 1993)

Target: Dihydrofolate reductase (Pneumocystis carinii) (UniProt P16184)
Assay: Inhibition of dihydrofolate reductase in pneumocystis carinii.

Row | SMILES | IC50
1 | COc1ccc(OC)c(-c2sc3nc(N)nc(N)c3c2C)c1 [6-(2,5-Dimethoxy-phenyl)-5-methyl-thieno[2,3-d]pyrimidine-2,4-diamine] | 4.8 µM
2 | COc1ccc(OC)c(Cc2sc3nc(N)nc(N)c3c2C)c1 [6-(2,5-dimethoxybenzyl)-5-methylthieno[2,3-d]pyrimidine-2,4-diamine] | 14 µM
